Laboratory results as given in patent publication US8247403B2, “Benzoxazepine derivatives and use thereof” (Takeda Pharmaceutical Company Limited, priority 2007, dated 2012).

Sequences of proteins named here, by UniProt entry; tags and fusion partners are left off. Residues count along the entry.
UniProt P28335, 33-458 I156V/N158S/I160V limits assumed: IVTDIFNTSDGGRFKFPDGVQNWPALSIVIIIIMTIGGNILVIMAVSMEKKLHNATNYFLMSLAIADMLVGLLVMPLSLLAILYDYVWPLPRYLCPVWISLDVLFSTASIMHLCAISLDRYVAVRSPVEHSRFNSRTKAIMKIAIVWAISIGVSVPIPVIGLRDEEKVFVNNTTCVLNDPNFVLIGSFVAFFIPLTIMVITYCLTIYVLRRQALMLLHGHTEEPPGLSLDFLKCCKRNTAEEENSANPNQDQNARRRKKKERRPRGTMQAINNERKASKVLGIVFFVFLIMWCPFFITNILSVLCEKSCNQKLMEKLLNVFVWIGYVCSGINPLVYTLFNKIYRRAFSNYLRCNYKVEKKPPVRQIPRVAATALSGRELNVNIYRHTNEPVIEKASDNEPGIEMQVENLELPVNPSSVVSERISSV

Target: serotonin 5-HT2C receptor (Homo sapiens, UniProt P28335, I156V/I160V/N158S)
Assay: cell-based
Details: CHO, read-out: ratio to maximum response by 5-HT (1 μM)

CC(C)c1cccc2c1OCCNC2 [Example 54, 9-(1-methylethyl)-2,3,4,5-tetrahydro-1,4-benzoxazepine hydrochloride]
activation at 1 µM: 107%

Where a name gives a salt, the structure may show the parent alone.
